{"sequences": {"note": "Sequences of proteins named here, by UniProt entry; tags and fusion partners are left off.", "UniProt P31645, whole entry, species assumed": "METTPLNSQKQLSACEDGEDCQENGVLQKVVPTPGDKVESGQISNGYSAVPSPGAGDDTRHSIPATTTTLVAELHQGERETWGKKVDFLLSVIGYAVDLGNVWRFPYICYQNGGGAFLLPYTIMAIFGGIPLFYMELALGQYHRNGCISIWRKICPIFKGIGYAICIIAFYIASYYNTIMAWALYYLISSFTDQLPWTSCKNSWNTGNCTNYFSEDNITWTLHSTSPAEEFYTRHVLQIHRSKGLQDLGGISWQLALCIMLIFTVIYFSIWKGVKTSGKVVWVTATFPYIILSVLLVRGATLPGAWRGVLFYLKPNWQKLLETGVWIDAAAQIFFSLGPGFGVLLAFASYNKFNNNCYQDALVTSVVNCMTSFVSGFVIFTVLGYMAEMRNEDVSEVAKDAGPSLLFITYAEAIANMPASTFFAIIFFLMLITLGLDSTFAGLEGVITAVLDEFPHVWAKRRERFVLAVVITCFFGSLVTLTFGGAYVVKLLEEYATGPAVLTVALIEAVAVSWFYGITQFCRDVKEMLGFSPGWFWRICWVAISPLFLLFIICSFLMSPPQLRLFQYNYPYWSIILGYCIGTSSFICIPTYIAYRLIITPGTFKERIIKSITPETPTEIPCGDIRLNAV"}, "source": "patent US7041851B2", "about": "“Fluorinated phenyl thiophenyl derivatives and their use for imaging serotonin transporters” (The Trustees of the University of Pennsylvania, priority 2002, dated 2006)", "origin": "cited, not measured here", "target": "SERT (Homo sapiens, UniProt P31645)", "settings": "Oya et al. 2001; Huang et al. 2001b; read-out: Ki SERT (literature); cited from earlier work"}
{"compound": "CN(C)Cc1ccccc1Sc1ccc(F)cc1N", "note": "[Compound 12, N,N-Dimethyl-2-(2-amino-4-fluorophenylthio)benzylamine]", "values": [{"measurement": "Ki", "result": 4.8, "unit": "nM"}]}
